Patent US6407104B1, “Pyrrolo[1,2-a]pyrazine spla2 inhibitor” (Shionogi & Co., Ltd., priority 1998, dated 2002)
pIC50: −log10 of the molar value.

The chains behind the UniProt entries cited, without tags or fusion partners. Residues count along the entry.
UniProt P14555, 21-144 limits assumed: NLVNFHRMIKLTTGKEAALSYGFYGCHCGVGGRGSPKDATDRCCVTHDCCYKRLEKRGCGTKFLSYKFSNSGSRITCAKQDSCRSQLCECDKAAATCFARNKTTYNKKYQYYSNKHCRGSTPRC

Biological target: recombinant human secretory phospholipase A2 (Homo sapiens, UniProt P14555)
Assay: Inhibition Test of Human Secretory Phospholipase A2 (chromogenic assay)
Conditions: sPLA2 50 ng/well, 40° C., 30 minutes, OD 405 nm, 96 well microtiterplate
Excerpt: Test Example: Inhibition Test of Human Secretory Phospholipase A2
In order to identify and evaluate an inhibitor of recombinant human secretory phospholipase A2, the following chromogenic assay is utilized. The assay herein has been applied for high volume screening wherein 96 well microtiterplate is used. A general explanation for such assay is described in “Analysis of Human Synovial Fluid Phospholipase A2 on Short Chain Phosphatidylcholine-Mixed Micelles: Development of a Spectrophotometric Assay Suitable for a Micortiterplate Reader” (Analytical Biochemistry, 204, pp 190-197, 1992 by Laure. J. Reynolds. Lori L. Hughes and Edward A. Dennis: the disclosure of which is incorporated herein for reference.
pH 7.5 (adjusted with NaOH)
pH 4.5 (adjusted with acetic acid)
1 mg of sPLA2 is dissolved in 1 ml of an enzyme buffer. Thereafter, the solution is maintained at 4° C.
In the assay, 5 μl of the solution is diluted with 1995 μl of the reaction buffer to be used.
198 mg of 5,5′-dithiobis-2-[…] (manufactured by Wako Pure Chemicals) is dissolved in 100 ml of H2O
H 7.5 (adjusted with NaOH)
100 mg of racemic 1,2-bis(heptanoylthio)-1,2-dideoxy-sn-glycero-3-phospholylcholine is dissolved in 1 ml of chloroform. […]
5) Changes in absorbancy for 30 minutes are measured by a plate reader, and inhibition activity was calculated (OD: 405 nm). […]

## CCc1c(C(=O)C(N)=O)c2c(OCC(=O)OC)nc(C)cn2c1Cc1ccccc1-c1ccsc1
  pIC50: 7.09
